Data: patent US5814600A, “Method and composition for treatment of insulin requiring mammals” (Amylin Pharmaceuticals Inc., priority 1994, dated 1998)

Assay: 14-day clinical study: tripro-amylin plasma peaks
Assay type: in vivo, human
Source text: In a 14-day double-blind, placebo controlled clinical study, for example, patients with juvenile-onset diabetes who continued their usual insulin therapy and self-injected tripro-amylin three times daily had lower average blood glucose levels after a test meal than did patients who received insulin and placebo. […] See also Table 2 below. […] These thrice-daily doses of tripro-amylin reflect per day dosages of, respectively, 90, 300, and 900 micrograms per patient. For a patient of average weight, about 70 kg, these reflect doses of 1.3 μg/kg/day, 4.3 μg/kg/day, and 12.9 μg/kg/day. An average per day insulin dose is about 50 units, or 2000 micrograms.

Compound `CC[C@H](C)[C@H](NC(=O)[C@@H]1CCCN1C(=O)CNC(=O)[C@H](Cc1ccccc1)NC(=O)[C@H](CC(N)=O)NC(=O)[C@H](CC(N)=O)NC(=O)[C@H](CO)NC(=O)[C@H](CO)NC(=O)[C@H](Cc1c[nH]cn1)NC(=O)[C@@H](NC(=O)[C@H](CC(C)C)NC(=O)[C@H](Cc1ccccc1)NC(=O)[C@H](CC(N)=O)NC(=O)[C@H](C)NC(=O)[C@H](CC(C)C)NC(=O)[C@H](CCCNC(=N)N)NC(=O)[C@H](CCC(N)=O)NC(=O)[C@@H](NC(=O)[C@H](C)NC(=O)[C@@H]1CSSC[C@H](NC(=O)[C@@H](N)CCCCN)C(=O)N[C@@H](CC(N)=O)C(=O)N[C@@H]([C@@H](C)O)C(=O)N[C@@H](C)C(=O)N[C@@H]([C@@H](C)O)C(=O)N1)[C@@H](C)O)C(C)C)C(=O)N[C@@H](CC(C)C)C(=O)N1CCC[C@H]1C(=O)N1CCC[C@H]1C(=O)N[C@H](C(=O)N[C@@H](CC(N)=O)C(=O)N[C@H](C(=O)NCC(=O)N[C@@H](CO)C(=O)N[C@@H](CC(N)=O)C(=O)N[C@H](C(=O)N[C@@H](Cc1ccc(O)cc1)C(N)=O)[C@@H](C)O)C(C)C)[C@@H](C)O` [tripro-amylin, ^25,28,29 Pro-human-amylin] has a Tripro-amylin plasma peaks (30 micrograms 3 times daily) of 22 ± 4 picomoles, a Tripro-amylin plasma peaks (100 micrograms 3 times daily) of 44 ± 14 picomoles and a Tripro-amylin plasma peaks (300 micrograms 3 times daily) of 173 ± 40 picomoles.
